By UniProt entry, the sequences of proteins in these tests, tags left out.
UniProt Q76JU9, whole entry: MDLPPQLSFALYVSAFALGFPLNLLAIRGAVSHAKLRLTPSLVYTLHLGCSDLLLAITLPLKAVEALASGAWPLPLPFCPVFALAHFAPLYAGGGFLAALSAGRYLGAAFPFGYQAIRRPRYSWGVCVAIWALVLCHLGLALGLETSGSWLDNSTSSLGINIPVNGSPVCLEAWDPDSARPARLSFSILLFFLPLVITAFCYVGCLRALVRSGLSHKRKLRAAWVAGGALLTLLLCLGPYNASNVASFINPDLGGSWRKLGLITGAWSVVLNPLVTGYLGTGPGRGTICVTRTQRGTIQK

According to paper PMC9781217, “Discovery of Novel and Selective G-Protein Coupled Receptor 120 (GPR120) Agonists for the Treatment of Type 2 Diabetes Mellitus” (Molecules, 2022):

Legend:
mouse GPR40 (mGPR40) = mouse GPR40 (mGPR40) (Mus musculus, UniProt Q76JU9); assay: Calcium flux assay in CHO cells expressing mouse GPR40
mouse GPR120 (mGPR120) = molecular target: T1, mouse GPR120 (mGPR120) (Mus musculus, UniProt Q7TMA4); assay: Calcium flux assay in CHO cells expressing mouse GPR120
T1 sequence (Q7TMA4 1-361): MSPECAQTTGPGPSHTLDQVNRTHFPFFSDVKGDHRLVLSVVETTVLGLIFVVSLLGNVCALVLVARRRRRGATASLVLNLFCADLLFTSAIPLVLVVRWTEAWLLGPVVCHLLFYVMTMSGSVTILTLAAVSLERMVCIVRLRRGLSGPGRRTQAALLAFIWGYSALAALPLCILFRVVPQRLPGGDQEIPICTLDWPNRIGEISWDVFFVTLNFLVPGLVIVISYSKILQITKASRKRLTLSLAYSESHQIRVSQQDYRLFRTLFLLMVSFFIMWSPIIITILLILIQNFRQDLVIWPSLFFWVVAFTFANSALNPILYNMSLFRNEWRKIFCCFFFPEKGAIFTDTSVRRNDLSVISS

Q: For `Cc1ccc(-c2ccc(F)cc2COc2ccc(CCC(=O)O)cc2)cc1` [TUG-891, reference compound], which EC50 (mouse GPR40 (mGPR40)) is on record?
A: Its EC50 is 5.9 µM.

Q: What about the EC50 (mouse GPR120 (mGPR120)) of the same compound?
A: The EC50 was 0.156 µM.

Q: What about the Hill slope (mouse GPR120 (mGPR120)) of the same compound?
A: Its Hill slope is 0.8310.
